From paper PMC9394474 (Viruses, 2022)

B1: hexahistidine-tagged full-length human GYG1, GN1 isoform (natural protein)
chain: MTDQAFVTLTTNDAYAKGALVLGSSLKQHRTTRRLVVLATPQVSDSMRKVLETVFDEVIMVDVLDSGDSAHLTLMKRPELGVTLTKLHCWSLTQYSKCVFMDADTLVLANIDDLFDREELSAAPDPGWPDCFNSGVFVYQPSVETYNQLLHLASEQGSFDGGDQGILNTFFSSWATTDIRKHLPFIYNLSSISIYSYLPAFKVFGASAKVVHFLGRVKPWNYTYDPKTKSVKSEAHDPNMTHPEFLILWWNIFTTNVLPLLQQFGLVKDTCSYVNVEDVSGAISHLSLGEIPAMAQPFVSSEERKERWEQGQADYMGADSFDNIKRKLDTYLQ
notes: also called hsGYG1-GN1; hGYG1-GN1
B2: hsGYG1 322-333 peptide (peptide)
peptide: DNIKRKLDTYLQ
B3: rabbit glycogenin-1, full length (natural protein)
chain: MTDQAFVTLTTNDAYAKGALVLGSSLKQHRTSRRLAVLTTPQVSDTMRKALEIVFDEVITVDILDSGDSAHLTLMKRPELGVTLTKLHCWSLTQYSKCVFMDADTLVLANIDDLFEREELSAAPDPGWPDCFNSGVFVYQPSVETYNQLLHVASEQGSFDGGDQGLLNTFFNSWATTDIRKHLPFIYNLSSISIYSYLPAFKAFGANAKVVHFLGQTKPWNYTYDTKTKSVRSEGHDPTMTHPQFLNVWWDIFTTSVVPLLQQFGLVQDTCSYQHVEDVSGAVSHLSLGETPATTQPFVSSEERKERWEQGQADYMGADSFDNIKKKLDTYLQ
notes: vector pOPTH; also called rbGYG1; full-length rbGYG1

What was measured:
[1] = biological target: hisMBP-TRIM7-CC-PRYSPRY (human, UniProt Q9C029 165-511); assay: ITC; conditions: both partners purified
[2] = biological target: T1, human hisTRIM7-PRYSPRY (human, UniProt Q9C029 342-511); assay: ITC; conditions: both partners purified
T1 construct: vector pOPTH; also called hTRIM7-PRYSPRY; hTRIM7

Binder | Kd [1] | Kd [2]
B1 | 0.16 ± 0.05 µM | 
B2 | 15 ± 6 µM | 
B3 |  | 2.3 µM
